Measurements published in ChEMBL document CHEMBL1121722, “Nonquaternary cholinesterase reactivators. Dialkylaminoalkyl thioesters of alpha-ketothiohydroximic acids as reactivators of diisopropyl phosphorofluoridate inhibited acetylcholinesterase” (1981).

Protein sequences, listed by entry. Tags and fused reporters are not part of them. Lines headed by an entry give the natural chain unless they say otherwise; changes in a name come on top.
UniProt P22303: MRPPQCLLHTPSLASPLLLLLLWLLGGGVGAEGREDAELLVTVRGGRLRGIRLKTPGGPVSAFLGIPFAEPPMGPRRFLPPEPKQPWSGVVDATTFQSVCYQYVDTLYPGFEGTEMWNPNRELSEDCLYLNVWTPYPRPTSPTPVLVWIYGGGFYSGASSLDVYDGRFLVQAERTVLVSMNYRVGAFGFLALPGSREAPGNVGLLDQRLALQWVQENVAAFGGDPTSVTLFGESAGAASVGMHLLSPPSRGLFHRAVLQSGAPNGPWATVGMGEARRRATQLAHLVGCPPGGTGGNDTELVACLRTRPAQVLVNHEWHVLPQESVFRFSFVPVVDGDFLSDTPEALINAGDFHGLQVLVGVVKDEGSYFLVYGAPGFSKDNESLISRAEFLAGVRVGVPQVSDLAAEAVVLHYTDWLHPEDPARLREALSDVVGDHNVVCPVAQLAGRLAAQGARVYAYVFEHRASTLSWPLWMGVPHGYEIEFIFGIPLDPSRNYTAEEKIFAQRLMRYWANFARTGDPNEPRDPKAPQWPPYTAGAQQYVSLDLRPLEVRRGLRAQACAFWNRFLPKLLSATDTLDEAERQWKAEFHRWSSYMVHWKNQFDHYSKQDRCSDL

Columns and labels:
[1] = target: Acetylcholinesterase (Homo sapiens) (UniProt P22303); assay: Kinetic constant was determined for reactivation of acetylcholinesterase at concentration of 7M*10e4 [HOX] and 3.80 Me-1*10e-3 [OX]e-1; (kobsd-ka)e-1, min
[2] = target: Acetylcholinesterase (Homo sapiens) (UniProt P22303); assay: Ratio of [EOP'']infinity to that of [EOH]infinity for reactivation of acetylcholinesterase at concentration of 20 M*10e4 [HOX] and 1.33Me-1*10e-3 [OX]e-1; Expressed as [EOP'']infinity/[EOH]infinity
[3] = target: Acetylcholinesterase (Homo sapiens) (UniProt P22303); assay: Maximum attainable percent reactivation obtained for a range of concentrations of 6M*10e4 HOX and 2.26M*10e4OX
[4] = target: Acetylcholinesterase (Homo sapiens) (UniProt P22303); assay: keff for reactivation of acetylcholinesterase at concentration of 2M*10e4 [HOX] and 13.3Me-1*10e-3 [OX]e-1 was determined; Expressed as keff, 1/M 1/min
[5] = target: Acetylcholinesterase (Homo sapiens) (UniProt P22303); assay: Percent reactivation of acetylcholinesterase after 4 hr incubation
[6] = target: Acetylcholinesterase (Homo sapiens) (UniProt P22303); assay: Kinetic constant was determined for reactivation of acetylcholinesterase at concentration of 10M*10e4 [HOX] and 2.66Me-1*10e-3 [OX]e-1; (kobsd-ka)e-1, min
[7] = target: Acetylcholinesterase (Homo sapiens) (UniProt P22303); assay: Kinetic constant was determined for reactivation of acetylcholinesterase at concentration of 20 M*10e4 [HOX] and 1.33Me-1*10e-3 [OX]e-1; (kobsd-ka)e-1, min
[8] = target: Acetylcholinesterase (Homo sapiens) (UniProt P22303); assay: kr for reactivation of acetylcholinesterase at concentration of 2M*10e4 [HOX] and 13.3Me-1*10e-3 [OX]e-1 was determined; Expressed as kr, M*10e3
[9] = target: Acetylcholinesterase (Homo sapiens) (UniProt P22303); assay: Percent reactivation of acetylcholinesterase after 24 hr incubation
[10] = target: Acetylcholinesterase (Homo sapiens) (UniProt P22303); assay: Pseudo first order observed rate constants for reactivation of acetylcholinesterase at 12M*10e4 HOX and 4.51M*10e4OX; Kobs (min-1 X 10e3)
[11] = target: Acetylcholinesterase (Homo sapiens) (UniProt P22303); assay: Percent reactivation of acetylcholinesterase after 2 hr incubation
[12] = target: Acetylcholinesterase (Homo sapiens) (UniProt P22303); assay: 1/kmax for reactivation of acetylcholinesterase at concentration of 2M*10e4 [HOX] and 13.3Me-1*10e-3 [OX]e-1 was determined; Expressed as 1/kmax, min
[13] = target: Acetylcholinesterase (Homo sapiens) (UniProt P22303); assay: Ratio of [EOP'']infinity to that of [EOH]infinity for reactivation of acetylcholinesterase at concentration of 0.0300 M *10e4 [HOX] and 1156Me-1*10e-3 [OX]e-1; Expressed as [EOP'']infinity/[EOH]infinity
[14] = target: Acetylcholinesterase (Homo sapiens) (UniProt P22303); assay: Ratio of [EOP'']infinity to that of [EOH]infinity for reactivation of acetylcholinesterase at concentration of 0.160 M *10e4 [HOX] and 216Me-1*10e-3 [OX]e-1; Expressed as [EOP'']infinity/[EOH]infinity
[15] = target: Acetylcholinesterase (Homo sapiens) (UniProt P22303); assay: Kinetic constant was determined for reactivation of acetylcholinesterase at concentration of 0.200 M*10e4 [HOX] and 175Me-1*10e-3 [OX]e-1; (kobsd-ka)e-1, min
[16] = target: Acetylcholinesterase (Homo sapiens) (UniProt P22303); assay: Kinetic constant was determined for reactivation of acetylcholinesterase at concentration of 10M*10e4 [HOX] and 3.5Me-1*10e-3 [OX]e-1; (kobsd-ka)e-1, min
[17] = target: Acetylcholinesterase (Homo sapiens) (UniProt P22303); assay: Ratio of kaKr to that of kr for reactivation of acetylcholinesterase at concentration of 2M*10e4 [HOX] and 10 Me-1*10e-3 [OX]e-1 was determined; Expressed as kaKr/kr; M*10e4
[18] = target: Acetylcholinesterase (Homo sapiens) (UniProt P22303); assay: Kr for reactivation of acetylcholinesterase at concentration of 2M*10e4 [HOX] and 10 Me-1*10e-3 [OX]e-1 was determined; Expressed as kr, M*10e4
[19] = target: Acetylcholinesterase (Homo sapiens) (UniProt P22303); assay: Ratio of [EOP'']infinity to that of [EOH]infinity for reactivation of acetylcholinesterase at concentration of 10M*10e4 [HOX] and 3.50 Me-1*10e-3 [OX]e-1; Expressed as [EOP'']infinity/[EOH]infinity
[20] = target: Acetylcholinesterase (Homo sapiens) (UniProt P22303); assay: Kinetic constant was determined for reactivation of acetylcholinesterase at concentration of 0.100 M *10e4 [HOX] and 346Me-1*10e-3 [OX]e-1; (kobsd-ka)e-1, min
[21] = target: Acetylcholinesterase (Homo sapiens) (UniProt P22303); assay: Kinetic constant was determined for reactivation of acetylcholinesterase at concentration of 0.0800 M*10e4 [HOX] and 431Me-1*10e-3 [OX]e-1; (kobsd-ka)e-1, min
[22] = target: Acetylcholinesterase (Homo sapiens) (UniProt P22303); assay: Ratio of ka to that of kr for reactivation of acetylcholinesterase at concentration of 2M*10e4 [HOX] and 10 Me-1*10e-3 [OX]e-1 was determined
[23] = target: Acetylcholinesterase (Homo sapiens) (UniProt P22303); assay: Maximum attainable percent reactivation obtained for a range of concentrations of 0.0800 M*10e4 HOX and 0.0232 M *10e4OX

## CCN(CC)CCS/C(=N\O)C(=O)c1ccc(OC)cc1
[1]
  1/kobsd-ka: 180 min
[2]
  [EOP']infinity/[EOH]infinity: 0.357
[3]
  Reactivation: 3.79%
[4]
  k eff: 0.183 M⁻¹ s⁻¹
[5]
  Reactivation: 58%
[6]
  1/kobsd-ka: 176 min
[7]
  1/kobsd-ka: 164 min
[8]
  kr: 8600 min⁻¹
[9]
  Reactivation: 55%
[10]
  k obs: 0.115 s⁻¹
[11]
  Reactivation: 31%
[12]
  1/kmax: 106 min

## C[n+]1ccccc1C=NO
[13]
  [EOP']infinity/[EOH]infinity: 0.964
[14]
  [EOP']infinity/[EOH]infinity: 0.203
[5]
  Reactivation: 105%
[15]
  1/kobsd-ka: 35.4 min
[16]
  1/kobsd-ka: 8.13 min
[9]
  Reactivation: 85%
[17]
  kaKr/kr: 75 M
[18]
  Kr: 1100 M
[19]
  [EOP']infinity/[EOH]infinity: 0.122
[20]
  1/kobsd-ka: 55.5 min
[21]
  1/kobsd-ka: 129 min
[11]
  Reactivation: 109%
[22]
  ka/kr: 0.11
[23]
  Reactivation: 4.2%
